With CN(C)C(=N)N=C(N)N [metformin] the “blood sugar and its variance (standard deviation)” value (first 10 days of treatment, metformin, FORMULA A added on day 9) was 344 ± 44.1 mg/dL and the fasting blood sugar (metformin 1000 mg twice a day alone, over 9 days, 375 mg/dL at diagnosis) was “about 325 mg/dL”.

Source: patent publication US11213543B2, “Human gastrointestinal microbiome modulating composition and methods of use” (priority 2011, dated 2022)
